Assay results: ChEMBL document CHEMBL1134711, “Pharmacophore-based discovery of 3,4-disubstituted pyrrolidines as a novel class of monoamine transporter inhibitors” (Bioorg Med Chem Lett, 2001)

The chains behind the UniProt entries cited, without tags or fusion partners.
UniProt Q9WTR4, whole entry: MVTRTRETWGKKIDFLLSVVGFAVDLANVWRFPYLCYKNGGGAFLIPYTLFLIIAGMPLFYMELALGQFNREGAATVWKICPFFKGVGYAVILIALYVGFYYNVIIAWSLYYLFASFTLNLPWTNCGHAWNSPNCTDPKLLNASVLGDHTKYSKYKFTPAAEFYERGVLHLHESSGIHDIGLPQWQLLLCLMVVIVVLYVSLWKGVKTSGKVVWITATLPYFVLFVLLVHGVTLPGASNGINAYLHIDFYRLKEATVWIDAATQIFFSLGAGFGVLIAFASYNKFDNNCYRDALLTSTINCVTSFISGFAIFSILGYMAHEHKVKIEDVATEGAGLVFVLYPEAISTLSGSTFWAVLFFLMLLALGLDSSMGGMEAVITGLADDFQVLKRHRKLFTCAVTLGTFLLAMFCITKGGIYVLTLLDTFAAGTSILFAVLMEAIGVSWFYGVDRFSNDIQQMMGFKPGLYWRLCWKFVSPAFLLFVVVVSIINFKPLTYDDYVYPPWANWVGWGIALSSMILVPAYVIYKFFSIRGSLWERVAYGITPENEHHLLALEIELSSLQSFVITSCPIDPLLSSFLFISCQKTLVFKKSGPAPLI

Molecular target: Norepinephrine transporter (Rattus norvegicus, UniProt Q9WTR4)
Assay: Inhibition of [3H]NE uptake at Norepinephrine transporter in rat parietal/occipital cortex was determined

COC(=O)[C@@H]1C2CC[C@@H](C[C@@H]1OC(=O)c1ccccc1)N2C (single isomer, unassigned) [COCAINE]
Ki: 190 nM
